In patent publication US11517729B2, “Integrated fiber microneedle device for drug and vaccine delivery” (University of Washington, priority 2018, dated 2022):

Assay: Release studies of integrated fiber microneedles in PBS
Format: physicochemical
Experimental: A small molecule drug, a model protein, and plasmid DNA were loaded into individual devices and the release kinetics of each were measured. These agents were loaded into an array of 420 needles, with a total device size of 4.2 cm^2. In this experiment, the needles were 350 μm in diameter and 800 μm tall. […] Each agent was successfully loaded into the fiber-microneedle system using a loading of 100 μg for the small molecule, […] for the protein, and 1.1 μg for the DNA. […] This plateau occurred at different percent release for the different agents. The small molecule plateaued at 70% release, the protein plateaued at 35% release, and the plasmid DNA plateaued around 80% release. […]
Data represent release from a single array of integrated fiber microneedles. Complete (100%) release was determined by TFV detected in release media after 84 days. […] Complete (100%) release was determined by the theoretical encapsulation of BSA in the iFMD. […] 100% release was determined by DNA detected in release media after 25 days.
Microneedle characterization: SEM imaging of electrospun fibers on the two-layer composite microneedle molds and completed microneedles was performed on a JEOL JSM7400F cold field emission scanning electron microscope. […] TFV content was determined by HPLC (Shimadzu Prominence LC20AD UV-HPLC) with a Phenomenex Luna 153 C18 column and LCSolutions software. […]

Substance: bovine serum albumin [BSA]
- plateau of percent release (BSA from integrated fiber microneedles into PBS, BCA assay, 100% = theoretical encapsulation, two replicates): 35%
- release profile (from integrated fiber microneedles (array of 420 needles) into PBS): sharp initial burst release followed by a plateau
